These results are taken from publication PMC12669672, “Structural insights into selective and dual antagonism of EP2 and EP4 prostaglandin receptors” (The EMBO Journal, 2025).

Sequences of proteins named here, by UniProt entry; tags and fusion partners are left off.
UniProt P43116, whole entry D311A: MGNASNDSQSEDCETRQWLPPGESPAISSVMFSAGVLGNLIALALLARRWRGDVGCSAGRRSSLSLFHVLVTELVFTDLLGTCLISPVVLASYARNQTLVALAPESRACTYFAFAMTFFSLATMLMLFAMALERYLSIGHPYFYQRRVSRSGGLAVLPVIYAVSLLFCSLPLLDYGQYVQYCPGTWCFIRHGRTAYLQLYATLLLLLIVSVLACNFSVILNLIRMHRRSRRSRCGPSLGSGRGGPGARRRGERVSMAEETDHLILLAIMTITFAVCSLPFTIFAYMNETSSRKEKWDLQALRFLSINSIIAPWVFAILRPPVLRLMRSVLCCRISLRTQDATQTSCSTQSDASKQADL
UniProt P43116, whole entry F273A: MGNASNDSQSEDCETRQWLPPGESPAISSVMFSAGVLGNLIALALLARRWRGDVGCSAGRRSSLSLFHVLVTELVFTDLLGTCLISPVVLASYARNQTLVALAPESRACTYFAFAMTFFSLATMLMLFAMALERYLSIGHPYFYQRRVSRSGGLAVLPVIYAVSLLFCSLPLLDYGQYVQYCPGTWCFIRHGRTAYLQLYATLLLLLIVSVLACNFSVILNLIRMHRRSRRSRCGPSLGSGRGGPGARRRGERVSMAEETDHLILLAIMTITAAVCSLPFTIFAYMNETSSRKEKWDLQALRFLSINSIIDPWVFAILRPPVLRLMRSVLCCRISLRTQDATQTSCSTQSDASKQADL

What all share (experiment): GloSensor cAMP assay, PGE2 induced cAMP signaling (activation)
What all share (assay type): cell-based
What all share (conditions): mean ± S.E.M., n = 3

One assay deals with T1, EP2-D311A (Homo sapiens, UniProt P43116, D311A).
T1 construct: The full-length EP2 or EP4 was cloned into the pcDNA3.1 vector (Invitrogen), incorporating an N-terminal FLAG tag; expressed in transfected cells; host or cells: AD293
As for the experimental part:
(§1) The full-length EP2 or EP4 was cloned into the pcDNA3.1 vector (Invitrogen), incorporating an N-terminal FLAG tag. AD293 cells were seeded in six-well plates containing DMEM supplemented with 10% dialyzed FBS 1 day prior to transfection. Following overnight growth, cells were transfected with a 1:1 ratio of receptor construct and GloSensor22F cAMP biosensor (Promega) plasmids.
(§2) Twenty-four hours post-transfection, the cells were transferred to CO2-independent media containing 2% GloSensor cAMP Reagent (Promega) and distributed into 384-well assay plates at a density of 4000 cells per well in 10 μL. […] The plates were then incubated at 37 °C for an additional hour before luminescence measurements were taken using an EnVision plate reader.
(§3) Data analysis was performed using GraphPad Prism software v8.0.1. A nonlinear regression analysis, employing a sigmoidal dose–response model, was conducted to determine the Emax values and half-maximum inhibitory concentrations (IC50) for each compound tested.

The target in the next assay is T2, EP2-F273A (Homo sapiens, UniProt P43116, F273A).
T2 construct: The full-length EP2 or EP4 was cloned into the pcDNA3.1 vector (Invitrogen), incorporating an N-terminal FLAG tag; expressed in transfected cells; host or cells: AD293
As for the experimental part:
as §1, §2, §3

In the next assay the target is EP2 WT (Homo sapiens, UniProt P43116). Details: The full-length EP2 or EP4 was cloned into the pcDNA3.1 vector (Invitrogen), incorporating an N-terminal FLAG tag; expressed in transfected cells; host or cells: AD293. As to the method: as §1, §2, §3

Regarding `CCCCC[C@H](O)/C=C/[C@H]1[C@H](O)CC(=O)[C@@H]1C/C=C\CCCC(=O)O` [PGE2, Prostaglandin E2], the EC50 is 14.8 nM on EP2-D311A, 138 nM at EP2-F273A and 0.479 nM on EP2 WT.
